Results published in patent publication US20250361280A1 (Protagonist Therapeutics, Inc., priority 2022, published 2025).

Legend:
[1] = target: T1, ferroportin (Homo sapiens, UniProt Q9NP59); assay: T47D internalization assay in presence of mouse serum albumin; assay type: cell-based; design: a human breast carcinoma adherent cell line which endogenously expresses ferroportin; host or cells: T47D; details: T47D cells, 0.5% mouse serum albumin, 1 hr incubation
T1 sequence (Q9NP59 1-571): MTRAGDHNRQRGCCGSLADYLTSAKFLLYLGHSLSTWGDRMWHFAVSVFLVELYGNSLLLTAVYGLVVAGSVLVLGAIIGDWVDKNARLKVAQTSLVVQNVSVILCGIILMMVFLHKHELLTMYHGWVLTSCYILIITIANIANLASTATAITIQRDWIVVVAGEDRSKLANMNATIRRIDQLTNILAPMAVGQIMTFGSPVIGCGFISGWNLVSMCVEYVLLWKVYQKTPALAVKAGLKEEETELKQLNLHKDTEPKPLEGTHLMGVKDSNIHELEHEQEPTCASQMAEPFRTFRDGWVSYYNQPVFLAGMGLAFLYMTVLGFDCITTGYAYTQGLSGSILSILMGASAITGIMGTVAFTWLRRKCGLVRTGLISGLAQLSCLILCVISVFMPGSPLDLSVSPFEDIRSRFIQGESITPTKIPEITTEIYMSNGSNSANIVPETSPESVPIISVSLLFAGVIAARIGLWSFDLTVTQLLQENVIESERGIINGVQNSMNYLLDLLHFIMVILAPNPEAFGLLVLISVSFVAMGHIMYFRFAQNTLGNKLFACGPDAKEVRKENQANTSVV
Experimental: The potency of the peptides disclosed in causing ferroportin internalization was evaluated in a T47D cell-based assay. […] In this internalization assay, the potency of the test peptides was evaluated in presence of serum albumin which is the main protein component in the blood. T47D cells were maintained in RPMI media (containing required amount of fetal bovine serum) and regularly sub-cultured. In preparation for the assay, the cells were seeded in 96-well plates at a density of 80-100 k cells per well in 100 ul volume and allowed to rest overnight. On the next day, test peptides were first prepared in dilution series (10-point series, starting concentration of ˜5 μM, typically 3-4×fold dilution steps), all with 0.5% mouse serum albumin (MSA purified from mouse serum; Sigma, A3139). The test peptide dilution series were allowed to incubate at room temperature for 30 min. Then the media was aspirated from the 96-well cell plate and test peptide dilution series were added. After 1 hr incubation, the media with test peptides was aspirated out and AF647-conjugated detection peptide was added at fixed concentration of 200 nM. The AF647-conjugated detection peptide was previously verified to bind to ferroportin and cause its internalization. The cells were washed again after a 2 hr incubation in preparation for flow cytometry analysis. The Median Fluorescence Intensity (MFI) of the AF647-positive population was measured (after removing dead cells and non-singlets from the analysis). The MFI values were used to generate a dose-response curve and obtain IC50 potencies for the test peptides. The IC50 potencies were calculated by using 4-parameter non-linear fitting function in Graphpad Prism and the results are provided in Table 1C.

[2] = target: T1, ferroportin; assay: FPN internalization assay (FPN activity assay), loss of ferroportin-GFP fluorescence; assay type: cell-based; details: HEK293 cells stably expressing ferroportin-GFP, compound at least 18 hours, read-out: IC50: FPN
[3] = Table 1D, read-out: IC50: T47D MSA
[4] = Table 1C, read-out: IC50: T47D MSA

Row | SMILES | IC50 [1, 4] [nM] | IC50 ([2]; Table 1C) [nM] | further results
1 | COC(=O)CCC(CCCC(C)C)C(=O)N[C@H](C(=O)N[C@@H](Cc1c[nH]cn1)C(=O)N[C@H](C(=O)N1CCC[C@H]1C(=O)N[C@H](CCCCN)C(=O)NCCCCc1ccccc1)C(c1ccccc1)c1ccccc1)[C@@H](C)O (single isomer, unassigned) [compound 164] | – | – | IC50 [1, 3]: > 500 nM; IC50 ([2]; Table 1D): > 500 nM
2 | COC(=O)CCC(CCCC(C)C)C(=O)N[C@H](C(=O)N[C@@H](Cc1c[nH]cn1)C(=O)N[C@H](C(=O)N1CCC[C@H]1C(=O)N(C)[C@@H](CCCC[N+](C)(C)C)C(=O)NCCCCc1ccccc1)C(c1ccccc1)c1ccccc1)[C@@H](C)O (single isomer, unassigned) [compound 165] | – | – | IC50 [1, 3]: > 500 nM; IC50 ([2]; Table 1D): > 500 nM
3 | CC(C)CC(=O)NCCCC[C@H](NC(=O)[C@@H]1CCCN1C(=O)[C@@H](NC(=O)[C@H](Cc1c[nH]cn1)NC(=O)[C@@H](NC(=O)[C@H](CCC(=O)O)NC(=O)CC(C)C)[C@@H](C)O)C(c1ccccc1)c1ccccc1)C(=O)NCCCCCc1ccccc1 [compound 5] | 10 to 100 | 1 to 30 | –
4 | CCCCCC(=O)NCCCC[C@H](NC(=O)[C@@H]1CCCN1C(=O)[C@@H](NC(=O)[C@H](Cc1c[nH]cn1)NC(=O)[C@@H](NC(=O)[C@H](CCC(=O)O)NC(=O)CC(C)C)[C@@H](C)O)C(c1ccccc1)c1ccccc1)C(=O)NCCCCCc1ccccc1 [compound 6] | 10 to 100 | 1 to 30 | –
5 | CCCCCCCCCCCCCCCC(=O)NCCCCCC(=O)NCCCC[C@H](NC(=O)[C@@H]1CCCN1C(=O)[C@@H](NC(=O)[C@H](Cc1c[nH]cn1)NC(=O)[C@@H](NC(=O)[C@H](CCC(=O)O)NC(=O)CC(C)C)[C@@H](C)O)C(c1ccccc1)c1ccccc1)C(=O)N[C@H](C(=O)N(C)CCN)C(c1ccccc1)c1ccccc1 [compound 12] | 10 to 100 | 30 to 100 | –
6 | CCCCCCCCCCCCCCCC(=O)NCCCCCC(=O)NCCCC[C@@H](C(=O)NCCCCCc1ccccc1)N(C)C(=O)[C@@H]1CCCN1C(=O)[C@@H](NC(=O)[C@H](Cc1c[nH]cn1)NC(=O)[C@H]([C@@H](C)O)N(C)C(=O)[C@H](CCC(=O)OC)NC(=O)CC(C)C)C(c1ccccc1)c1ccccc1 [compound 16] | 100 to 500 | 1 to 30 | –
7 | CC(=O)NCC[N+](C)(C)CC(=O)NCCCC[C@H](NC(=O)[C@@H]1CCCN1C(=O)[C@@H](NC(=O)[C@H](Cc1c[nH]cn1)NC(=O)[C@@H](NC(=O)[C@H](CCC(=O)O)NC(=O)CC(C)C)[C@@H](C)O)C(c1ccccc1)c1ccccc1)C(=O)NCCCCc1ccccc1 [compound 20] | 100 to 500 | 30 to 100 | –
8 | CCCCCCCCCCCCCCCC(=O)NCC[N+](C)(C)CC(=O)NCCCCCC(=O)NCCCC[C@H](NC(=O)[C@@H]1C[C@H]2CN1C(=O)[C@H](C(c1ccccc1)c1ccccc1)NC(=O)[C@H](Cc1c[nH]cn1)NC(=O)[C@@H](NC(=O)[C@H](CCC(=O)O)NC(=O)CC(C)C)CSS2)C(=O)NCCCCc1ccccc1 [compound 21] | > 500 | 30 to 100 | –
9 | CCCCCCCCCCCCCCCC(=O)NCCCCCC(=O)N[C@H]1C[C@@H](C(=O)N[C@H](C(N)=O)C(c2ccccc2)c2ccccc2)N(C(=O)[C@@H](NC(=O)[C@H](Cc2c[nH]cn2)NC(=O)[C@@H](NC(=O)[C@H](CCC(=O)O)NC(=O)CC(C)C)[C@@H](C)O)C(c2ccccc2)c2ccccc2)C1 [compound 34] | > 500 | – | –
10 | COC(=O)CC[C@H](NC(=O)CC(C)C)C(=O)N[C@H](C(=O)N[C@@H](Cc1c[nH]cn1)C(=O)N[C@H](C(=O)N1CCC[C@H]1C(=O)N(C)[C@@H](CCCCNC(=O)CCCCCNC(=O)C[N+](C)(C)CCNC(=O)CCCCCCCCCCCCCCCCC(=O)O)C(=O)N[C@H](C(N)=O)C(c1ccccc1)c1ccccc1)C(c1ccccc1)c1ccccc1)[C@@H](C)O [compound 40] | 100 to 500 | – | –
11 | COC(=O)CC[C@H](NC(=O)CC(C)C)C(=O)N(C)[C@H](C(=O)N[C@@H](Cc1c[nH]cn1)C(=O)N[C@H](C(=O)N1CCC[C@H]1C(=O)N(C)[C@@H](CCCCNC(=O)C[N+](C)(C)CCNC(=O)CCCCCCCCCCCCCCCCC(=O)O)C(=O)N[C@H](C(N)=O)C(c1ccccc1)c1ccccc1)C(c1ccccc1)c1ccccc1)[C@@H](C)O [compound 42] | > 500 | – | –
12 | COC(=O)CC[C@H](NC(=O)CC(C)C)C(=O)N[C@H](C(=O)N[C@@H](Cc1c[nH]cn1)C(=O)N[C@H](C(=O)N1CCC[C@H]1C(=O)N1CCC[C@@H]1C(=O)N(C)[C@@H](CCCCNC(=O)COCCOCCNC(=O)COCCOCCNC(=O)[C@H](CN)NC(=O)CCCCCCCCCCCCCCCCC(=O)O)C(=O)N[C@H](CC(=O)N[C@H](CCCCN)C(N)=O)Cc1ccccc1)C(c1ccccc1)c1ccccc1)[C@@H](C)O [compound 43] | > 500 | – | –
13 | COC(=O)CC[C@H](NC(=O)CC(C)C)C(=O)N[C@H](C(=O)N[C@@H](Cc1c[nH]cn1)C(=O)N[C@H](C(=O)N1CCC[C@H]1C(=O)NCC(=O)N1CCC[C@H]1C(=O)N(C)[C@@H](CCCCNC(=O)COCCOCCNC(=O)COCCOCCNC(=O)[C@H](CN)NC(=O)CCCCCCCCCCCCCCCCC(=O)O)C(=O)N[C@H](CC(=O)N[C@H](CCCCN)C(N)=O)Cc1ccccc1)C(c1ccccc1)c1ccccc1)[C@@H](C)O [compound 44] | > 500 | – | –
14 | COC(=O)CC[C@H](NC(=O)CC(C)C)C(=O)N[C@H](C(=O)N[C@@H](Cc1c[nH]cn1)C(=O)N[C@H](C(=O)N1CCC[C@H]1C(=O)NCC(=O)N1CCC[C@@H]1C(=O)N(C)[C@@H](CCCCNC(=O)COCCOCCNC(=O)COCCOCCNC(=O)[C@H](CN)NC(=O)CCCCCCCCCCCCCCCCC(=O)O)C(=O)N[C@H](CC(=O)N[C@H](CCCCN)C(N)=O)Cc1ccccc1)C(c1ccccc1)c1ccccc1)[C@@H](C)O [compound 45] | > 500 | – | –
15 | CCCCCCCCCCCCCCCC(=O)NCC[N+](C)(C)CC(=O)NCCOCCOCC(=O)NCCOCCOCC(=O)NCCCC[C@H](NC(=O)[C@@H]1CCCN1C(=O)[C@@H](NC(=O)[C@H](Cc1c[nH]cn1)NC(=O)[C@@H](NC(=O)[C@H](CCC(=O)O)NC(=O)CC(C)C)[C@@H](C)O)C(c1ccccc1)c1ccccc1)C(=O)Nc1nnc(COc2ccccc2)o1 [compound 102] | – | – | IC50 ([1]; IC50: T47D MSA (nM, Table 1D)): 0.1 to 10 nM
16 | CCCCCCCCCCCCCCCC(=O)NCC[N+](C)(C)CC(=O)NCCOCCOCC(=O)NCCOCCOCC(=O)NCCCC[C@H](NC(=O)[C@@H]1C[C@@H]2CN1C(=O)[C@H](C(c1ccccc1)c1ccccc1)NC(=O)[C@H](Cc1c[nH]cn1)NC(=O)[C@@H]1C[C@@H](CN1C(=O)[C@H](CCC(=O)O)NC(=O)CC(C)C)SS2)C(=O)NCCCCCc1ccccc1 [compound 119] | – | – | IC50 [1, 3]: 10 to 100 nM
17 | CCCCCCCCCCCCCCCC(=O)N[C@@H](CCC(=O)NCCOCCOCC(=O)NCCOCCOCC(=O)NCCCC[C@H](NC(=O)[C@@H]1CCCN1C(=O)[C@@H](NC(=O)[C@H](Cc1c[nH]cn1)NC(=O)[C@@H](NC(=O)[C@H](CCC(=O)O)NC(=O)CC(C)C)[C@@H](C)O)C(c1ccccc1)c1ccccc1)C(=O)NCCCCCc1ccccc1)C(=O)O [compound 120] | – | – | IC50 [1, 3]: 10 to 100 nM
18 | CCCCCCCCCCCCCCCC(=O)NCCOCCOCCOCCOCCOCCOCCOCCOCCOCCOCCOCCOCCC(=O)NCCCC[C@H](NC(=O)[C@@H]1CCCN1C(=O)[C@@H](NC(=O)[C@H](Cc1c[nH]cn1)NC(=O)[C@@H](NC(=O)[C@H](CCC(=O)O)NC(=O)CC(C)C)[C@@H](C)O)C(c1ccccc1)c1ccccc1)C(=O)NCCCCCc1ccccc1 [compound 121] | – | – | IC50 [1, 3]: 0.1 to 10 nM
19 | CCCCCCCCCCCCCCCC(=O)NCC[N+](C)(C)CC(=O)NCCOCCOCC(=O)NCCOCCOCC(=O)NCCCC[C@H](NC(=O)[C@@H]1C[C@@H]2CN1C(=O)[C@H](C(c1ccccc1)c1ccccc1)NC(=O)[C@H](Cc1c[nH]cn1)NC(=O)[C@H]([C@@H](C)O)NC(=O)[C@@H](NC(=O)CC(C)C)CCC1=NN=C(O1)C(CC)N2)C(=O)NCCCCc1ccccc1 (stereo partly drawn) [compound 122] | – | – | IC50 ([1]; IC50: T47D MSA (nM, Table 1D)): 10 to 100 nM
